Target: Prostaglandin G/H synthase 2 (Homo sapiens) (UniProt P35354)
Experiment: Inhibitory activity against cyclooxygenase-2 (COX-2) in cell assay using stably transfected Cos-A2 CELLS at dose 1 ug/mL
Details: Cercopithecidae

An inhibition of 54% was found for `CC(C)S(=O)(=O)c1c(O)n(Cc2ccc(F)c(F)c2)c(=O)c2ccccc12` in this work.
